How the values were obtained:
[1] = system: Mus musculus; experiment: Antidiabetic activity against 12 hrs fasted high fat diet-STZ-induced C57BL/6J mouse model of type 2 diabetes assessed as decrease in fasting blood glucose level at 50 mg/kg, po qd administered for 106 days (reference value: 16.8 mmol/L); type: functional; settings: time 106 day
[2] = system: Mus musculus; experiment: Antidiabetic activity against 12 hrs fasted high fat diet-STZ-induced C57BL/6J mouse model of type 2 diabetes assessed as decrease in fasting blood glucose level at 50 mg/kg, po qd administered for 106 days in presence of metformin (reference value: 16.8 mmol/L); type: functional; settings: time 106 day

Cc1ccccc1C1C(=O)N(C)c2cnc(Nc3ccc(S(N)(=O)=O)cc3)nc2N1C (configuration not stated)
Activity [1]: 13.3 mmol/L
Activity [2]: 7.4 mmol/L

From ChEMBL document CHEMBL5137114, “Discovery of IHMT-MST1-58 as a Novel, Potent, and Selective MST1 Inhibitor for the Treatment of Type 1/2 Diabetes” (J Med Chem, 2022)
